IC50 data for two compounds are collected here from ChEMBL document CHEMBL1158589, “Benzimidazole and imidazole inhibitors of histone deacetylases: Synthesis and biological activity” (Bioorg Med Chem Lett, 2010).

As a reminder, the IC50 is the concentration needed to halve the response being measured.

One test concerns the target T1, Histone deacetylase 8 (Homo sapiens, UniProt Q9BY41).
T1 sequence (Q9BY41 whole entry): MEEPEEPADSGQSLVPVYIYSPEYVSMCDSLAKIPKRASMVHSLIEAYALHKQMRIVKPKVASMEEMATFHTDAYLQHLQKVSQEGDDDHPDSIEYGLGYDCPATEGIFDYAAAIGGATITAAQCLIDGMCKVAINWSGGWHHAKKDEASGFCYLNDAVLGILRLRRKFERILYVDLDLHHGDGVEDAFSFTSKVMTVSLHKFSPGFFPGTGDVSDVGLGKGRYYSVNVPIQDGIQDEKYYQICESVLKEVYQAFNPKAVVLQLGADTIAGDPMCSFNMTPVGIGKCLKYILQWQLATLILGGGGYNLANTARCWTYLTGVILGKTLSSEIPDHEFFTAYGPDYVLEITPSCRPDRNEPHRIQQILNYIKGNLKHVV
The experiment in a line: Inhibition of human recombinant HDAC8.

Test [1] concerns the target T2, Protein deacetylase HDAC6 (Homo sapiens, UniProt Q9UBN7).
T2 sequence (Q9UBN7 whole entry): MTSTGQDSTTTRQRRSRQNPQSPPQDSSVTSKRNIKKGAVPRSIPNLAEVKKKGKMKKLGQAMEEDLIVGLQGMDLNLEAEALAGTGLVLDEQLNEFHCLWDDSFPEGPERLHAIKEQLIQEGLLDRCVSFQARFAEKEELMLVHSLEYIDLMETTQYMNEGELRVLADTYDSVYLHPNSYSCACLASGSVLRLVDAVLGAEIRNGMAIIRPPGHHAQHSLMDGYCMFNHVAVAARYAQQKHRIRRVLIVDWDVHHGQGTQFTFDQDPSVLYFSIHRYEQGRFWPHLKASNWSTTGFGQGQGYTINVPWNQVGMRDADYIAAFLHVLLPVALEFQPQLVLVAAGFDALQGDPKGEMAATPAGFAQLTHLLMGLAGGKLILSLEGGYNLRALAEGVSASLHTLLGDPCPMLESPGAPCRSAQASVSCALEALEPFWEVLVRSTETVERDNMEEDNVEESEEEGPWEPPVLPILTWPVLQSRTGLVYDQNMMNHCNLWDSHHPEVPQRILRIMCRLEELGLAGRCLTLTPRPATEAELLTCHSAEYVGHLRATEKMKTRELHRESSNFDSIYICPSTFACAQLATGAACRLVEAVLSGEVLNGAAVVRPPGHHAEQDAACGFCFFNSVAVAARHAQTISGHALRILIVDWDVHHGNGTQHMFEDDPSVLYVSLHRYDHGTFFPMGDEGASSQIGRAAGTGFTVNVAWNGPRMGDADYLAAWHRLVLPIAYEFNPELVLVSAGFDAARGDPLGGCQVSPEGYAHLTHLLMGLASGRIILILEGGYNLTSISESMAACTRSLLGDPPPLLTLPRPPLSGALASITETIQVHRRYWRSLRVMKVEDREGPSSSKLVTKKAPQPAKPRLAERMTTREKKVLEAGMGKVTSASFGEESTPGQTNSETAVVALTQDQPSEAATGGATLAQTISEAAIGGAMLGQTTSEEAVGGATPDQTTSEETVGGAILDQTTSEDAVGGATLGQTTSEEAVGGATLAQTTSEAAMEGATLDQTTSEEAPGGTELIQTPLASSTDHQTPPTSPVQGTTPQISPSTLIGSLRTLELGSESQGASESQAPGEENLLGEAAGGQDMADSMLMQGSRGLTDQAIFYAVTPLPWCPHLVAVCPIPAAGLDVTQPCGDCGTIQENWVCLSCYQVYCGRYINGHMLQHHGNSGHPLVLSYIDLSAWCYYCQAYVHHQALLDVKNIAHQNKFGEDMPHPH
The experiment in a line: Inhibition of human recombinant HDAC6. An outline of the steps:
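Purified recombinant human HDAC-2 or HDAC-6 at known enzyme concentration with tBOC(Ac)-Lys-AMC as substrate. IC50 is the mean of at least three experiments.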

Consider `CCN1CCC[C@@H](n2c(C)nc(C)c2-c2cccc(/C=C/C(=O)NO)c2)C1`, for which the IC50 on Histone deacetylase 8 was 500 nM.
For the compound `O=C(/C=C/c1cccc(-c2nc3ccccc3n2CCN2CCCC2)c1)NO`, the IC50 in test [1] came out at 63 nM.
